Measurements taken from patent US10543298B2, “Salts of tetracyclines” (Hovione Scientia Limited, priority 2015, dated 2020).

Assay: Solubility in buffers at pH 1.0, 1.2, 4.5, 6.8 and 7.5
Conditions: for Solubility pH = 1.0 (volume of solvent required for dissolution per gram of solute): buffer pH 1.0, KCl 0.2 M / HCl 0.2 M; for Solubility pH = 1.2 (volume of solvent required for dissolution per gram of solute): buffer pH 1.2, KCl 0.2 M / HCl 0.2 M; for Solubility pH = 4.5 (volume of solvent required for dissolution per gram of solute): buffer pH 4.5, potassium biphthalate 0.2 M / HCl 0.2 M; for Solubility pH = 6.8 (volume of solvent required for dissolution per gram of solute): buffer pH 6.8, monobasic potassium phosphate 0.2 M / NaOH 0.2 M; for Solubility pH = 7.5 (volume of solvent required for dissolution per gram of solute): buffer pH 7.5, monobasic potassium phosphate 0.2 M / NaOH 0.2 M

| Substance | Solubility pH = 1.0 (volume of solvent required for dissolution per gram of solute) [ml/g] | Solubility pH = 1.2 (volume of solvent required for dissolution per gram of solute) [ml/g] | Solubility pH = 4.5 (volume of solvent required for dissolution per gram of solute) [ml/g] | Solubility pH = 6.8 (volume of solvent required for dissolution per gram of solute) [ml/g] | Solubility pH = 7.5 (volume of solvent required for dissolution per gram of solute) [ml/g] |
| --- | --- | --- | --- | --- | --- |
| Demeclocycline Maleate | 30 | 30 | 38 | 77 | 67 |
| Demeclocycline Oxalate | 10 | 18 | 53 | 34 | 77 |
